Data published in patent US6545045B1, “Prostaglandin E agonists for treatment of glaucoma” (Alcon Manufacturing, Ltd., priority 1998, dated 2003).

Chains of the proteins cited; added tags and fusions are not shown. Lines headed by an entry give the natural chain unless they say otherwise; changes in a name come on top.
UniProt P43116: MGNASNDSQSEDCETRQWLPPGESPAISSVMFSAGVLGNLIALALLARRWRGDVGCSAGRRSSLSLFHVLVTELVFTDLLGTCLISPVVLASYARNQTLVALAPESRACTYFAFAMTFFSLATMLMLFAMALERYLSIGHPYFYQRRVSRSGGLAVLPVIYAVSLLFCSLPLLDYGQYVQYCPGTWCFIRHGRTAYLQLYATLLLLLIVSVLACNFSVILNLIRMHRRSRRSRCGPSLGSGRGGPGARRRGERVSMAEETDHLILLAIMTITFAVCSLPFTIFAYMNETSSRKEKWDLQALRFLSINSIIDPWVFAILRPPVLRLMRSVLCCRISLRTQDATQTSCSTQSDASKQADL

Biological target: T1, EP2 receptors (Homo sapiens, UniProt P43116)
T1 construct: Immortalized human non-pigmented ciliary epithelial cells (containing EP2 receptors); endogenous in cells; host or cells: immortalized human non-pigmented ciliary epithelial cells
Assay: cAMP production (radioimmunoassay) via EP2 receptors in immortalized human non-pigmented ciliary epithelial cells
Assay type: cell-based
Conditions: stimulated 15-60 min at 23° C, read-out: Potency (EC50, nM) at EP2 Receptors in Immortalized Human Non-pigmented Ciliary Epithelial Cells
Procedure: Immortalized human non-pigmented ciliary epithelial cells (containing EP2 receptors) and Chinese hamster ovary cells (containing EP4 receptors, Milne et al. Human moncytes and cultured Chinese hamster ovary cells express EP4 receptors positively coupled to adenylate cyclase, Br. J. Pharmacology, 113 (supplement):8 (1994)) were stimulated with various prostaglandins for 15-60 min at 23° C. […]

## CCCCC[C@H](O)/C=C/[C@H]1[C@H](O)CC(=O)[C@@H]1C/C=C\CCCC(=O)O [PGE2]
  EC50: 38 nM
